Test results taken from patent publication US11001609B2, “Cell permeable cyclic peptide scaffolds” (priority 2017, dated 2021).

type: in vitro ADME; details: not given

In order of falling “Permeability Value”:
1. A, LA08, M1, p, L***, F [Compound 34]  2.556e-05 cm/s
2. LA02, M1, BHF, P, M1, F [Compound 98]  2.042e-05 cm/s
3. LA02, 1, M1, P, M1, F [Compound 113]  1.952e-05 cm/s
4. Ma, LA08, 1, P, M1, F [Compound 144]  1.856e-05 cm/s
5. LA02, M1, BHF, P, M1, F [Compound 188]  1.701e-05 cm/s
6. LA02, ML***, 1, p, LA08, F [Compound 189]  1.699e-05 cm/s
7. A, LA08, L***, P, M1, F [Compound 213]  1.638e-05 cm/s
8. LA02, M1, BHF, p, M1, F [Compound 271]  1.46e-05 cm/s
9. A, ML***, LA08, p, LA08, F [Compound 274]  1.459e-05 cm/s
10. BHF, LA08, 1, P, M1, F [Compound 301]  1.401e-05 cm/s
11. LA02, M1, BHF, P, M1, F [Compound 338]  1.332e-05 cm/s
12. LA02, ML***, 1, p, LA08, F [Compound 367]  1.277e-05 cm/s
13. A, LA08, L***, P, LA08, F [Compound 368]  1.276e-05 cm/s
14. BHF, M1, BHF, P, 1, F [Compound 371]  1.26e-05 cm/s
15. A, LA08, M1, P, LA08, F [Compound 397]  1.194e-05 cm/s
16. A, LA08, LA08, p, L***, F [Compound 402]  1.189e-05 cm/s
17. BHF, ML***, ML***, P, LA08, F [Compound 454]  1.113e-05 cm/s
18. LA02, LA08, 1, p, L***, F [Compound 455]  1.112e-05 cm/s
19. LA02, 1, BHF, P, L***, F [Compound 469]  1.094e-05 cm/s
20. BHF, M1, BHF, P, 1, F [Compound 519]  1.009e-05 cm/s
21. a, LA08, M1, P, LA08, F [Compound 552]  9.432e-06 cm/s
22. A, ML***, LA08, p, LA08, F [Compound 574]  8.949e-06 cm/s
23. A, LA08, M1, P, LA08, F [Compound 602]  8.379e-06 cm/s
24. LA02, M1, BHF, P, M1, F [Compound 615]  8.127e-06 cm/s
25. a, LA08, L***, P, LA08, F [Compound 623]  8.048e-06 cm/s
26. BHF, M1, BHF, p, M1, F [Compound 628]  8.011e-06 cm/s
27. LA02, LA08, LA08, p, 1, F [Compound 637]  7.837e-06 cm/s
28. LA02, LA08, LA08, p, 1, F [Compound 662]  7.42e-06 cm/s
29. LA02, LA08, LA08, P, L***, F [Compound 676]  7.16e-06 cm/s
30. LA02, 1, M1, p, M1, F [Compound 707]  6.603e-06 cm/s
31. BHF, M1, BHF, P, 1, F [Compound 719]  6.245e-06 cm/s
32. BHF, LA08, 1, P, M1, F [Compound 721]  6.204e-06 cm/s
33. BHF, LA08, M1, p, M1, F [Compound 726]  6.152e-06 cm/s
34. BHF, 1, ML***, p, LA08, F [Compound 732]  6.073e-06 cm/s
35. LA02, LA08, 1, p, L***, F [Compound 741]  5.85e-06 cm/s
36. LA02, M1, 1, P, LA08, F [Compound 749]  5.732e-06 cm/s
37. a, LA08, LA08, p, 1, F [Compound 771]  5.398e-06 cm/s
38. BHF, ML***, LA08, p, LA08, F [Compound 781]  5.269e-06 cm/s
39. LA02, 1, BHF, p, L***, F [Compound 789]  5.163e-06 cm/s
40. A, LA08, M1, p, L***, F [Compound 801]  5e-06 cm/s
41. LA02, LA08, LA08, P, L***, F [Compound 842]  4.141e-06 cm/s
42. BHF, L***, M1, P, LA08, F [Compound 846]  4.027e-06 cm/s
43. LA02, M1, BHF, p, M1, F [Compound 850]  3.944e-06 cm/s
44. LA02, ML***, BHF, p, M1, F [Compound 930]  2.744e-06 cm/s
45. BHF, LA08, LA08, p, M1, F [Compound 958]  2.281e-06 cm/s
46. BHF, M1, BHF, p, M1, F [Compound 992]  1.572e-06 cm/s

same assay, conditions: PAMPA Pe; 1% lecithin in n-dodecane, PBS with 5% DMSO, 25° C., 18 hours; corrected on 1NMe3 standard

In order of falling “Permeability Value”:
1. LA02, M1, BHF, P, L***, F [Compound 77]  2.186e-05 cm/s
2. Ma, LA08, M1, P, M1, F [Compound 159]  1.795e-05 cm/s
3. LA02, 1, ML***, P, M1, F [Compound 178]  1.747e-05 cm/s
4. LA02, L***, M1, P, M1, F [Compound 217]  1.625e-05 cm/s
5. BHF, LA08, L***, P, L***, F [Compound 303]  1.396e-05 cm/s
6. BHF, M1, BHF, P, L***, F [Compound 360]  1.296e-05 cm/s
7. A, LA08, ML***, P, LA08, F [Compound 392]  1.202e-05 cm/s
8. BHF, LA08, 1, P, L***, F [Compound 427]  1.149e-05 cm/s
9. LA02, 1, ML***, P, LA08, F [Compound 438]  1.132e-05 cm/s
10. MA, LA08, ML***, p, ML***, F [Compound 468]  1.095e-05 cm/s
11. LA02, L***, ML***, p, M1, F [Compound 472]  1.086e-05 cm/s
12. LA02, M1, LA08, p, LA08, F [Compound 477]  1.081e-05 cm/s
13. LA02, LA08, L***, p, L***, F [Compound 479]  1.076e-05 cm/s
14. LA02, M1, L***, P, LA08, F [Compound 485]  1.065e-05 cm/s
15. LA02, M1, BHF, p, 1, F [Compound 489]  1.061e-05 cm/s
16. BHF, ML***, LA08, P, 1, F [Compound 492]  1.059e-05 cm/s
17. LA02, 1, ML***, p, ML***, F [Compound 535]  9.74e-06 cm/s
18. LA02, LA08, 1, p, M1, F [Compound 541]  9.632e-06 cm/s
19. BHF, LA08, M1, p, 1, F [Compound 546]  9.565e-06 cm/s
20. A, LA08, ML***, P, LA08, F [Compound 550]  9.45e-06 cm/s
21. BHF, LA08, L***, p, 1, F [Compound 585]  8.764e-06 cm/s
22. LA02, M1, L***, P, LA08, F [Compound 616]  8.119e-06 cm/s
23. LA02, LA08, BHF, P, 1, F [Compound 618]  8.092e-06 cm/s
24. LA02, LA08, ML***, P, 1, F [Compound 627]  8.019e-06 cm/s
25. LA02, M1, LA08, p, LA08, F [Compound 644]  7.689e-06 cm/s
26. MA, ML***, BHF, p, LA08, F [Compound 649]  7.608e-06 cm/s
27. LA02, LA08, 1, P, LA08, F [Compound 660]  7.437e-06 cm/s
28. BHF, ML***, LA08, P, 1, F [Compound 668]  7.293e-06 cm/s
29. LA02, ML***, LA08, P, LA08, F [Compound 682]  7.036e-06 cm/s
30. LA02, L***, BHF, p, 1, F [Compound 727]  6.128e-06 cm/s
31. A, LA08, ML***, P, 1, F [Compound 729]  6.103e-06 cm/s
32. BHF, LA08, ML***, P, L***, F [Compound 737]  6.029e-06 cm/s
33. MA, ML***, BHF, p, LA08, F [Compound 746]  5.796e-06 cm/s
34. MA, LA08, 1, p, LA08, F [Compound 755]  5.628e-06 cm/s
35. a, LA08, BHF, p, ML***, F [Compound 760]  5.596e-06 cm/s
36. BHF, L***, LA08, p, M1, F [Compound 772]  5.385e-06 cm/s
37. BHF, LA08, L***, p, M1, F [Compound 790]  5.157e-06 cm/s

same assay, conditions: PAMPA Pe; 1% lecithin in n-dodecane, PBS with 5% DMSO, 25° C., 18 hours; corrected to 1NMe3 standard

In order of rising “Permeability Value”:
1. MA, LA08, M1, p, LA08, F [Compound 1051]  3.421e-07 cm/s
2. BHF, M1, BHF, P, ML***, F [Compound 1042]  6.705e-07 cm/s
3. BHF, LA08, L***, p, ML***, F [Compound 1039]  7.376e-07 cm/s
4. BHF, M1, BHF, P, LA08, F [Compound 1033]  8.606e-07 cm/s
5. BHF, LA08, LA08, p, L***, F [Compound 997]  1.489e-06 cm/s
6. BHF, LA08, L***, P, LA08, F [Compound 984]  1.801e-06 cm/s
7. Ma, M1, BHF, p, LA08, F [Compound 966]  2.131e-06 cm/s
8. BHF, ML***, M1, P, LA08, F [Compound 953]  2.335e-06 cm/s
9. LA02, ML***, BHF, p, LA08, F [Compound 935]  2.631e-06 cm/s
10. BHF, LA08, M1, P, LA08, F [Compound 908]  3.097e-06 cm/s
11. LA02, L***, ML***, p, LA08, F [Compound 902]  3.187e-06 cm/s
12. BHF, 1, LA08, P, LA08, F [Compound 889]  3.337e-06 cm/s
13. LA02, ML***, LA08, p, L***, F [Compound 883]  3.423e-06 cm/s
14. BHF, M1, M1, P, 1, F [Compound 874]  3.614e-06 cm/s
